Assay [1] relates to KM mice. Description: Disappearance of righting reflex in mice after tail vein injection. The format is in vivo.
Assay [2] concerns SD rats. Nature of the assay: Disappearance of righting reflex in rats after tail vein injection. The format is in vivo.
Where [3] appears, read: single tail vein injection at 2×ED50, time from recovery of righting reflex to free crawling.

Turning to `CCC(CC)OC(=O)OC(OC(=O)CC[C@@H]1N=C(c2ccccn2)c2cc(Cl)c(OC(F)(F)F)cc2-n2c(C)cnc21)C1CC(F)C(CC)C1` (stereo partly drawn) [Example 68, (3-Ethyl-4-fluorocyclopentyl) (((pentanyl-3-yloxy)carbonyl)oxy)methyl 3-((4S)-8-chloro-1-methyl-6-(pyridine-2-yl)-9-(trifluoromethoxy)-4H-benzo[f]imidazo[1,2-a][1,4]diazapin-4-yl) propionate L-aspartate], the results for the 2ED50 recovery time in assay [1] (setting [3]) and in assay [2] (setting [3]) were 2.49 min and 2.18 min, respectively. Besides, the Quality of recovery entry in assay [1] (tail vein injection) and in assay [2] (tail vein injection) was “++ (“++” means 1-3 min)” in each case.

The record behind these values is patent publication US12473291B2 (priority 2019, dated 2025).
